# Tested on: standard pool of bacteria, yeasts, and molds obtained from American Type Culture Collection (ATCC) that are common contaminants in coatings
# Assay: Microbial resistance challenge test (three inoculations at 7-d intervals, streak plating on TSA and PDA)
smiles,measurement,value
CCC(C)(C)OO,effectiveness as preservative for the aqueous dispersion of opaque polymers,effective
